Test results taken from ChEMBL document CHEMBL6134903, “Challenging triple negative breast cancer through HDAC6 selective inhibition: Novel cap-group identification, structure-activity relationships, computational and biological studies” (Eur J Med Chem, 2025).

Sequences of proteins named here, by UniProt entry; tags and fusion partners are left off.
UniProt Q13547, whole entry: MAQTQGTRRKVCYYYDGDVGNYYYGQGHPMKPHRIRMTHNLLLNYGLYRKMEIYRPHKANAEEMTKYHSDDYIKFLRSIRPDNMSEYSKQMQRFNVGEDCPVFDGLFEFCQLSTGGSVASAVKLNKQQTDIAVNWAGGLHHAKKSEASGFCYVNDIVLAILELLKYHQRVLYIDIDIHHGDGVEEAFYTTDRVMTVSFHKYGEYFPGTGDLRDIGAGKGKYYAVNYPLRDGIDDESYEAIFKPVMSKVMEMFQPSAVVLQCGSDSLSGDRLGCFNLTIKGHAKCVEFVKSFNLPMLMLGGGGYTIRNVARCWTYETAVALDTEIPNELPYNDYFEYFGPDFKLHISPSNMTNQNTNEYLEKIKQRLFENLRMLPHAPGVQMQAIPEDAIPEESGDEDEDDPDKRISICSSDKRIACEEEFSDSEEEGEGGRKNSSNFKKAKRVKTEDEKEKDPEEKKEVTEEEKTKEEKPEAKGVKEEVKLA

Target: Histone deacetylase 1 (Homo sapiens) (UniProt Q13547)
Details: Sf9, dose 10.0 µM, time 30.0 min

O=C(NO)c1ccc(CN2CN(c3ccccc3)C3(CCN(C(=O)c4ccc(-c5ccccc5)o4)CC3)C2=O)c(F)c1
inhibition: 48%

O=C(NO)c1ccc(CN2CN(c3ccccc3)C3(CCN(Cc4ccc(-c5ccccc5)o4)CC3)C2=O)c(F)c1
inhibition: 60%

O=C(NO)c1cc(F)c(CN2CN(c3ccccc3)C3(CCNCC3)C2=O)c(F)c1
inhibition: 39%

O=C(NO)c1ccc(CN2CN(c3ccccc3)C3(CCN(C(=O)NCc4ccco4)CC3)C2=O)c(F)c1
inhibition: 41%
